Read-outs that look alike come from different tables or passages of the source.
Tests used:
[1] = rat plasma, tizanidine form 3 mg/kg, resveratrol 44 mg/kg, piperine 2 mg/kg where co-administered
Procedure: Bioanalysis was performed using a fit-for-purpose LC-MS/MS method for the quantification of tenofovir in rat plasma samples. The calibration curve (CC) for the method consisted of nine non-zero calibration standards along with a double blank and zero standard samples. Study samples were analyzed along with three sets of quality control samples (18 QC samples; low, medium and high QC samples). Plasma pharmacokinetic parameters were calculated using the non-compartmental analysis tool of Phoenix software (Version 6.3) and were determined from individual animals in each group. The peak plasma concentration (Cmax), time to achieve peak plasma concentration (Tmax), the area under the plasma concentration-time curve (AUC0-t and AUCinf), AUC Extra (%), elimination half-life (T1/2), clearance (CL), volume of distribution Vd (L/kg) and Mean residence time (MRT) were calculated from intravenous group. The peak plasma concentration (Cmax), time to achieve peak plasma concentration (Tmax), AUC0-t and AUCinf, AUC Extra (%), Mean residence time (MRT) and absolute oral bioavailability (F) were calculated from the oral group.

[2] = rat plasma, 3 mg/kg PO
Procedure: Bioanalysis was performed using a fit-for-purpose LC-MS/MS method for the quantification of tenofovir in rat plasma samples. The calibration curve (CC) for the method consisted of nine non-zero calibration standards along with a double blank and zero standard samples. Study samples were analyzed along with three sets of quality control samples (18 QC samples; low, medium and high QC samples).
Plasma pharmacokinetic parameters were calculated using the non-compartmental analysis tool of Phoenix software (Version 6.3) and were determined from individual animals in each group. The peak plasma concentration (C), time to achieve peak plasma concentration (Tmax), the area under the plasma concentration-time curve (AUC0-t and AUCinf), AUC Extra (%), elimination half-life (T1/2), clearance (CL), volume of distribution Vd (L/kg) and Mean residence time (MRT) were calculated from intravenous group. The peak plasma concentration (C), time to achieve peak plasma concentration (T), AUC0-t and AUCinf, AUC Extra (%), Mean residence time (MRT) and absolute oral bioavailability (F) were calculated from the oral group.

CLF_Obs(PO) [1]: 462 ± 83.5 mL/min/kg
CLF_Obs(PO) [2]: 462 ± 83.5 mL/min/kg
Substance: Tizanidine hydrochloride [Tizanidine HCl]

Reference: patent US20220193043A1 (CIPLA LIMITED, priority 2019, published 2022)
